The values that follow come from paper PMC7865627, “Small Molecule-Based Prodrug Targeting Prostate Specific Membrane Antigen for the Treatment of Prostate Cancer” (Cancers, 2021).

The data set relates to PSMA-positive PC3pip cells. Kind of data set: In vitro cytotoxicity assay (CCK-8), PC3pip. The format is cell-based, human. The conditions noted are these: 50 μM E64. On the procedure:
Cells (1000/well) were seeded in 96-well culture plates the day before treatment.

On to `CC[C@H](C)[C@@H]([C@@H](CC(=O)N1CCC[C@H]1[C@H](OC)[C@@H](C)C(=O)N[C@H](C)[C@@H](O)c1ccccc1)OC)N(C)C(=O)[C@@H](NC(=O)[C@H](C(C)C)N(C)C(=O)CCCCCN1C(=O)CC(SC[C@H](NC(=O)[C@@H](CCC(=O)O)NC(=O)[C@@H](CCC(=O)O)NC(=O)[C@@H](CCC(=O)O)NC(=O)CCCCCNC(=O)[C@H]2CC[C@H](CNC(=O)CC[C@H](NC(=O)N[C@@H](CCC(=O)O)C(=O)O)C(=O)O)CC2)C(=O)NCCCCCC(=O)N[C@@H](CCCCNC(=O)CCCCC[N+]2=C(/C=C/C=C/C=C3/N(C)c4ccc5ccccc5c4C3(C)C)C(C)(C)c3c2ccc2ccccc32)C(N)=O)C1=O)C(C)C` (some centres unmarked) [PSMA-1-McMMAE-Cy5.5], for which the “reduction of cytotoxicity to PC3pip by E64” value was “no effect”.

With `CC[C@H](C)[C@@H]([C@@H](CC(=O)N1CCC[C@H]1[C@H](OC)[C@@H](C)C(=O)N[C@H](C)[C@@H](O)c1ccccc1)OC)N(C)C(=O)[C@@H](NC(=O)[C@H](C(C)C)N(C)C(=O)OCc1ccc(NC(=O)[C@H](CCCNC(N)=O)NC(=O)[C@@H](NC(=O)CCCCCN2C(=O)CC(SC[C@H](NC(=O)[C@@H](CCC(=O)O)NC(=O)[C@@H](CCC(=O)O)NC(=O)[C@@H](CCC(=O)O)NC(=O)CCCCCNC(=O)[C@H]3CC[C@H](CNC(=O)CC[C@H](NC(=O)N[C@@H](CCC(=O)O)C(=O)O)C(=O)O)CC3)C(=O)NCCCCCC(=O)N[C@@H](CCCCNC(=O)CCCCC[N+]3=C(/C=C/C=C/C=C4/N(C)c5ccc6ccccc6c5C4(C)C)C(C)(C)c4c3ccc3ccccc43)C(N)=O)C2=O)C(C)C)cc1)C(C)C` (some centres unmarked) [PSMA-1-VcMMAE-Cy5.5], the “reduction of cytotoxicity to PC3pip by E64” value is “more than 4.3 fold”.
